GIV-Gai inh: inhibitors of GIV GBA-motif binding to rat Galpha-i3. 210,000 tested, 0.42% active. percent of control (FP), % (concentration not given with the values). AID 1224905. Galpha-i3/FITC-GIV peptide fluorescence polarization, 90 min; active compounds read low; scaled: aluminum fluoride 0%, vehicle 100%;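 active = replicate mean at 85% of control or lower, very high polarization wells dropped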;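 note: wells of about 15 µL received 100 nL stock; the first replicate is given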
HCMV UL50-53 inh: disrupts HCMV UL50-UL53 complex binding. HTRF UL50-UL53 interaction, normalized percent inhibition. inhibition, % (concentration not given with the values). 190,000 compounds, 0.15% hits; in the data active means inhibition above about 27%, passing the limit was not always enough
GIV-Gai FP conf: confirmation of inhibitors of GIV binding to rat Galpha-i3 | AID 1259350 | FITC-GIV peptide binding to Galphai3, fluorescence polarization; hits give low values | 580 compounds, 38% hits | fluorescence polarization, mP at 100 µM | shares compounds with GIV-Gai inh;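 active means inhibition score of 15 or more, meaning 100 minus mean polarization as percent of control over three replicates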;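 further: lower mP means peptide displaced from Galphai3 so more inhibition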
GIV-Gai AS conf: GIV-Galpha-i3 inhibition, AlphaScreen confirmation. shares compounds with GIV-Gai inh. AlphaScreen Galphai3-GIV binding, purified proteins, 90 min; hits give low values. AlphaScreen counts at 100 µM. 580 compounds, 39% hits. AID 1259351;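 active means inhibition score at or above a set limit, where the score is 100 minus the three-replicate mean percent of control signal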
Active calls of the source: *; nt = not tested or not shown. In the library only some 0.46% were active in any assay of this set; here they are far more common.

The opening 5 records, to show the layout:
SMILES	GIV-Gai inh	HCMV UL50-53 inh	others
Cc1cc(/C=C2\C(=O)NC(=O)N(c3ccc(F)cc3)C2=O)c(C)n1-c1ccc(C(=O)O)cc1	102.5	-18.4
Cc1ccc(N2C(=O)NC(=O)/C(=C\c3cc(C)n(-c4cc(C(=O)O)cc(C(=O)O)c4)c3C)C2=O)cc1	106.4	31.9*
CC(=O)N1N=C2C3CCN(CC3)[C@@H]2[C@@H]1c1cc(C)cc(C)c1	109.4	12.1
NC=Nc1ccc2[nH]c3c(c2c1)C[C@@]1(O)C2Cc4ccc(O)c5c4[C@@]1(CCN2CC1CC1)[C@H]3O5	nt	-8.5
CC(c1ccccc1)N1C(=O)NC(=O)/C(=C/c2coc3ccccc3c2=O)C1=O (centres undefined)	105.2	nt

Results, repeating the preview:
SMILES	GIV-Gai inh	HCMV UL50-53 inh	others
Cc1cc(/C=C2\C(=O)NC(=O)N(c3ccc(F)cc3)C2=O)c(C)n1-c1ccc(C(=O)O)cc1	102.5	-18.4
Cc1ccc(N2C(=O)NC(=O)/C(=C\c3cc(C)n(-c4cc(C(=O)O)cc(C(=O)O)c4)c3C)C2=O)cc1	106.4	31.9*
CC(=O)N1N=C2C3CCN(CC3)[C@@H]2[C@@H]1c1cc(C)cc(C)c1	109.4	12.1
NC=Nc1ccc2[nH]c3c(c2c1)C[C@@]1(O)C2Cc4ccc(O)c5c4[C@@]1(CCN2CC1CC1)[C@H]3O5	nt	-8.5
CC(c1ccccc1)N1C(=O)NC(=O)/C(=C/c2coc3ccccc3c2=O)C1=O (centres undefined)	105.2	nt
CN1C(=O)C(=Cc2coc3ccccc3c2=O)C(=O)N(C)C1=O	103.2	38.8*
Cc1c(C#N)c2nc3ccccc3n2c(=O)/c1=C\Nc1ccc(N2CCOCC2)c(Cl)c1	56.7*	nt
Cc1cc(Nc2ccc(N3CCCC3)cc2)n2c(nc3ccccc32)c1C#N	101.0	-41.1
CC(C)=CCC12CN3CCN(CC(C3)C1O)C2 (centres undefined)	98.1	-28.0
COc1ccc(CN2C(=O)NC(=O)/C(=C\c3cccc(OC)c3OC)C2=O)cc1	97.8	77.9*
COc1ccc(-n2c(C)cc(/C=C3/C(=O)NC(=O)N(Cc4ccco4)C3=O)c2C)cc1	94.0	1.3
c1ccc(OC[C@@H]2CCCN3CCCCC23)nc1 (some centres undefined)	100.4	-12.0
CN1C(=O)NC(=O)/C(=C\C=C\c2ccco2)C1=O	95.2	nt
O=C1NC(=S)NC(=O)C1=C/C=C/c1ccco1	109.7	77.6*
COc1cccc(C=C2C(=O)NC(=O)NC2=O)c1	nt	14.0
CN1/C(=C\C=C2C(=O)NC(=O)NC2=O)C(C)(C)c2ccccc21	29.0*	-78.0
CCSc1ccc(CCN)s1	99.3	-16.7
CN(C)CC(=O)c1ccc2cc[nH]c2c1	106.2	-27.7
CC1(C)CC(=O)C(C2(O)C(=O)NC(=O)NC2=O)=C(O)C1	99.2	62.9*
CC(O)CN1CCCCC1c1cccnc1 (centres undefined)	nt	-2.3
Clc1ccc(CN2CCCCC2)cn1	nt	-8.9
CC(=O)Nc1ccc(C)cc1S(=O)(=O)N1Cc2ccccc2-n2cccc2C1c1ccc(C)cc1 (centres undefined)	103.2	nt
CCCS(=O)(=O)N1CCC2(C1)C(=O)N(C)c1ccc(OC)cc12 (centres undefined)	106.9	nt
Oc1cc(Cl)c(Cl)cc1O	100.6	3.6
COc1cc(C=C2C(=O)NC(=O)NC2=O)ccc1OCc1ccc(C(=O)O)cc1	110.9	20.0
O=C1NC(=O)C(=Cc2ccc(OCc3ccc(C(=O)O)cc3)c(Br)c2)C(=O)N1	100.7	62.6*
COc1cc(C=C(C#N)C#N)ccc1O	133.4	-7.2
Cc1[nH]c2ccccc2c1/C=C/c1nc2ccccc2c(=O)n1-c1ccccc1	-70.0*	7.4
Cc1ccccc1-n1c(/C=C/c2c(C)[nH]c3ccccc23)nc2ccccc2c1=O	113.4	-11.7
O=C1NC(=O)C(=Cc2cccc(OCCOc3ccc([N+](=O)[O-])cc3)c2)C(=O)N1	111.6	36.8*
O=C1NC(=O)C(=Cc2ccc(OCCOc3ccc([N+](=O)[O-])cc3)cc2)C(=O)N1	100.7	-30.7
CCCCc1ncc(CNCCc2c(C)[nH]c3ccc(OC)cc23)[nH]1	20.6*	-12.6
Cc1[nH]c2ccccc2c1CCNCc1ccco1	nt	7.6
C=CCN1C(=O)NC(=O)/C(=C/c2ccc(OCC(=O)O)c(OCC)c2)C1=O	97.2	4.0
CCc1ccc(N2C(=O)/C(=C/c3ccc(OCC(=O)O)c(Br)c3)C(=O)NC2=S)cc1	57.4*	-30.1	GIV-Gai FP conf=34.4*;GIV-Gai AS conf=3342*
Nc1ccc(S(=O)(=O)N2CCCCC2c2cccnc2)cc1 (centres undefined)	103.1	-16.5
Cc1nc(S(=O)(=O)N2CCCCC2c2cccnc2)cn1C (centres undefined)	84.8*	-4.0	GIV-Gai FP conf=58.3;GIV-Gai AS conf=42642
COc1ccc(CC2CC3CCN2CC3)cc1 (centres undefined)	96.0	-16.5
Cc1ccc2sc(NC(=O)c3ccc(S(=O)(=O)N(CCCl)CCCl)cc3)nc2c1	105.4	-12.3
COc1c(Cl)cc(Cl)cc1-c1c(C#N)c(N)n2c(nc3ccccc32)c1C#N	101.8	nt
Cc1cc(C)c2oc(-c3ccc(N/C=c4\c(C)c(C#N)c5nc6ccccc6n5c4=O)cc3)nc2c1	72.6*	2.6	GIV-Gai FP conf=80.3;GIV-Gai AS conf=44971
COCCNC(=O)Cn1cc(C=C2C(=O)N(C)C(=O)N(C)C2=O)c2ccccc21	96.1	-6.1	GIV-Gai FP conf=72.2;GIV-Gai AS conf=40853
